For one data set, the system named is PHHs. As to conditions: 150 minutes, 50 μM BPAF or BPS.
In the next data set the test system is MCF7. The following applies: 50 μM BPAF or BPS.
The test system of the next data set is HepG2. The following applies: 50 μM BPAF or BPS.
For a further data set, the system named is HEK293. The following applies: 50 μM BPAF or BPS.

Read-outs that look alike come from different tables or passages of the source.

Turning to “bisphenol S 2 sulfate conjugates [BPS 2S]”, the “Phase II Metabolite Formation Rate” value was “-------------^1” in the data set with PHHs; “-------------^1” in the data set on MCF7 (MCF7, 150 minutes); “-------------^1” in the data set with MCF7 (MCF7, 24 hours); “-------------^1” in the data set on HepG2 (HepG2, 150 minutes); “-------------^1” in the data set on HepG2 (HepG2, 24 hours).
For the substance bisphenol S glucuronide [BPS G], the “Phase II Metabolite Formation Rate” value with HEK293 (HEK293, 150 minutes) is on record as “-------------^1”; in the data set with HEK293 (HEK293, 24 hours), 53.8 ± 6.89 Peak area/minute-million cells; in the data set on MCF7 (MCF7, 150 minutes), “-------------^1”; in the data set on MCF7 (MCF7, 24 hours), “-------------^1”; with HepG2 (HepG2, 150 minutes), “-------------^1”.

Values taken from publication PMC10838150 (Toxicology in vitro : an international journal published in …, 2021).
